Test results as given in ChEMBL document CHEMBL2203214, “Polyether ionophores-promising bioactive molecules for cancer therapy” (Bioorg Med Chem Lett, 2012).

Tested on: MDR
Assay: Inhibition of MDR in multidrug-resistant human KB cells assessed as increase of doxorubicin accumulation after 1 hr relative to control

Compound `CC[C@@]1([C@@H]2O[C@@H]([C@H]3O[C@@](O)(CO)[C@H](C)C[C@@H]3C)C[C@@H]2C)CC[C@H]([C@]2(C)CC[C@]3(C[C@H](O)[C@@H](C)[C@@H]([C@@H](C)[C@@H](OC)[C@H](C)C(=O)O)O3)O2)O1` [MONENSIN] has a fold change (FC) of 2.
